Data taken from article PMC8997437, “Apelin Resistance Contributes to Muscle Loss during Cancer Cachexia in Mice” (Cancers, 2022).

Columns and labels:
[1] = [Pyr1]-apelin 13 (L version), 0.5 µg/µL in mouse serum, 37 °C, samples extracted with acetonitrile/3% TFA, MALDI-TOF read-out, compared with time 0
APJ = target: T1, APJ (Mus musculus, UniProt Q9WV08); experiment: CRE-luciferase (cAMP) reporter assay in transfected myoblasts, apelin peptides; assay type: cell-based; settings: 1 μM peptide for 5 h, with vehicle or 50 μM forskolin, n = 6
T1 construct: we transfected myoblasts with a reporter plasmid with the gene for FLuc under the control of cAMP-responsive elements (CRE); endogenous in cells; host or cells: myoblasts (C2C12 according to the luciferase-assay methods)
T1 sequence (Q9WV08 1-377): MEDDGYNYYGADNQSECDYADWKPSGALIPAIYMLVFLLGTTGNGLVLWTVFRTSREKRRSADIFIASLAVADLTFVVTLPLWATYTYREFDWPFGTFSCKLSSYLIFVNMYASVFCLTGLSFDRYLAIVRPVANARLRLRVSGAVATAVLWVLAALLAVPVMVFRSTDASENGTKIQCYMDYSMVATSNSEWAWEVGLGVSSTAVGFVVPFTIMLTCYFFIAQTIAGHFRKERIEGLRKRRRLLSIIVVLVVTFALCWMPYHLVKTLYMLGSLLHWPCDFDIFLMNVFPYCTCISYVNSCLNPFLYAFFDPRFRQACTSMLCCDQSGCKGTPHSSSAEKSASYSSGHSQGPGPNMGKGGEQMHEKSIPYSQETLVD

With [Pyr1]-Apelin 13 [L-apelin 13] the “time at which the apelin 13 peaks disappeared in mouse serum (turnover)” value [1] was 3 h and the “reduction of cAMP and forskolin-induced cAMP (FLuc/RLuc, CRE reporter)” value (APJ) was “about 25%”.
